Experimental data taken from publication PMC2442905 (2008).

Sequences of proteins named here, by UniProt entry; tags and fusion partners are left off. A change or cut given only in a name is not applied to a line headed by its entry.
UniProt Q12809: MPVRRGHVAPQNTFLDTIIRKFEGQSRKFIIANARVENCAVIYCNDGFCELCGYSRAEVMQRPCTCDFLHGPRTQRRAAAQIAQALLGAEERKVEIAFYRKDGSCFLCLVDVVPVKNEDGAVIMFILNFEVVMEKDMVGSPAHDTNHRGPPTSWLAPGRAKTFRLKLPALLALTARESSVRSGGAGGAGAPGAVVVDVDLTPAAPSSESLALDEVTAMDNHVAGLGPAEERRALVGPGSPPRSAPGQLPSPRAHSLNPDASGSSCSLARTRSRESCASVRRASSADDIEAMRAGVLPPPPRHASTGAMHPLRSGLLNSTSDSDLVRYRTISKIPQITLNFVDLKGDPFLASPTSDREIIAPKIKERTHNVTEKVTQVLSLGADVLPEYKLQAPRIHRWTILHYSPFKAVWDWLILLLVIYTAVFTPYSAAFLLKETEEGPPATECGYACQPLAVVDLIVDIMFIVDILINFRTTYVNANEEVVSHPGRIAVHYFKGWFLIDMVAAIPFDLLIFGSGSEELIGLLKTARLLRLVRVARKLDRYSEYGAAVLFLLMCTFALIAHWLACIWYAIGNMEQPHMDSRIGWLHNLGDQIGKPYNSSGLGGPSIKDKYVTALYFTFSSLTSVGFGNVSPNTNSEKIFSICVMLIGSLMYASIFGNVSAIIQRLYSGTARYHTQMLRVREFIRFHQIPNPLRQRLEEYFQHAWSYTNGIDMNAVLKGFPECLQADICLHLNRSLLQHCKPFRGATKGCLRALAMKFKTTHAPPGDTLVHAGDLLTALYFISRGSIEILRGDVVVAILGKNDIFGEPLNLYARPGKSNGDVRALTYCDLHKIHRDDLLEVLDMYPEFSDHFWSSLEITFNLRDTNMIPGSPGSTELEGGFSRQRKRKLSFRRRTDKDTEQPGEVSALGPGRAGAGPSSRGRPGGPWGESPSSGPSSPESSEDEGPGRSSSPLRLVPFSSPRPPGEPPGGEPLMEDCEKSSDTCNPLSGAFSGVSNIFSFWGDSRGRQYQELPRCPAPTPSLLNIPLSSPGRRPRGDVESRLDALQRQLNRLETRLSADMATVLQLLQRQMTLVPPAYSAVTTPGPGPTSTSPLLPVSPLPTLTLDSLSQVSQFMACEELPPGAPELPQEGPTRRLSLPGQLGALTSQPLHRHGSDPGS

Molecular target: hERG potassium channels stably expressed in CHO-K1 cells (Homo sapiens, UniProt Q12809)
Assay: cell-based

O=C1Cc2cc(CCN3CCN(c4nsc5ccccc45)CC3)c(Cl)cc2N1 [Ziprasidone]
IC50: 165 nM
